Membrane permeability of cyclic peptides

Values of Kelly et al. 2021, doi:10.1021/jacs.0c06115, as listed in CycPeptMPDB.

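Lipid, pH, incubation time, direction and concentration are not recorded in the data file. The list need not hold all peptides of the study. Peptides that the database sets to -10, its floor, are left out.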

PAMPA measures passive passage through an artificial lipid membrane. Permeability is given as log10 of P in cm/s; higher (less negative) is more permeable.

structure (SMILES),PAMPA (log10 cm/s)
COc1ccc(C[C@@H]2NC(=O)[C@@H](Cc3ccccc3)NC(=O)[C@@H](NC(=O)[C@@H](CC(C)C)N(C)C(=O)[C@@H]3CCCN3C(C)=O)[C@@H](C)OC(=O)[C@@H]3CCCN3C(=O)[C@H](CC(C)C)NC(=O)[C@@H](C)N(C)C(=O)[C@@H](Cc3ccccc3)NC2=O)cc1,-6.19
CC(=O)N1CCC[C@H]1C(=O)N(C)[C@H](CC(C)C)C(=O)N[C@@H]1C(=O)N[C@H](Cc2ccc(F)cc2)C(=O)N[C@@H](CCc2ccccc2)C(=O)N[C@H](CC(C)C)C(=O)N(C)[C@H](C)C(=O)N[C@@H](CC(C)C)C(=O)N2CCC[C@H]2C(=O)O[C@@H]1C,-5.47
CCC[C@H]1NC(=O)[C@@H](NC(=O)[C@@H](CC(C)C)N(C)C(=O)[C@@H]2CCCN2C(C)=O)[C@@H](C)OC(=O)[C@@H]2CCCN2C(=O)[C@H](CC(C)C)NC(=O)[C@@H](C)N(C)C(=O)[C@@H](CC(C)C)NC(=O)[C@H](Cc2ccc(OC)cc2)NC1=O,-5.86
CC(=O)N1CCC[C@H]1C(=O)N(C)[C@H](CC(C)C)C(=O)N[C@@H]1C(=O)N[C@H](Cc2ccc(F)c(F)c2)C(=O)N[C@@H](CCc2ccccc2)C(=O)N[C@H](Cc2ccc(F)c(F)c2)C(=O)N(C)[C@H](C)C(=O)N[C@@H](CC(C)C)C(=O)N2CCC[C@H]2C(=O)O[C@@H]1C,-6.79
CC(=O)N1CCC[C@H]1C(=O)N(C)[C@H](CC(C)C)C(=O)N[C@@H]1C(=O)N[C@H](CC2CCCCC2)C(=O)N[C@@H](CCc2ccccc2)C(=O)N[C@H](Cc2ccc(F)cc2)C(=O)N(C)[C@H](C)C(=O)N[C@@H](CC(C)C)C(=O)N2CCC[C@H]2C(=O)O[C@@H]1C,-6.15
CC[C@H]1NC(=O)[C@@H](NC(=O)[C@@H](CC(C)C)N(C)C(=O)[C@@H]2CCCN2C(C)=O)[C@@H](C)OC(=O)[C@@H]2CCCN2C(=O)[C@H](CC(C)C)NC(=O)[C@@H](C)N(C)C(=O)[C@@H](Cc2ccccc2)NC(=O)[C@H](Cc2ccc(F)cc2)NC1=O,-5.59
CC[C@@H]1NC(=O)[C@@H](Cc2ccc(F)c(F)c2)NC(=O)[C@@H](NC(=O)[C@@H](CC(C)C)N(C)C(=O)[C@@H]2CCCN2C(C)=O)[C@@H](C)OC(=O)[C@@H]2CCCN2C(=O)[C@H](CC(C)C)NC(=O)[C@@H](C)N(C)C(=O)[C@@H](Cc2ccc(F)c(F)c2)NC1=O,-5.60
CC(=O)N[C@@H]1C(=O)N2CCC[C@H]2C(=O)N(C)[C@H](CC(C)C)C(=O)N(C)[C@@H](CC(C)C)C(=O)N(C)[C@@H](CC(C)C)C(=O)N[C@@H](CC(C)C)C(=O)N[C@H](C)C(=O)N[C@@H](CC(C)C)C(=O)N2CCC[C@@H]2C(=O)O[C@@H]1C,-6.37
CC(=O)N1CCC[C@H]1C(=O)N[C@@H]1C(=O)N(C)[C@H](CC(C)C)C(=O)N[C@H](CC(C)C)C(=O)N(C)[C@H](CC(C)C)C(=O)N(C)[C@H](CC(C)C)C(=O)N[C@@H](C)C(=O)N[C@@H](CC(C)C)C(=O)N2CCC[C@@H]2C(=O)O[C@@H]1C,-6.92
CC(=O)N1CCC[C@H]1C(=O)N[C@@H]1C(=O)N[C@H](CC(C)C)C(=O)N(C)[C@@H](CC(C)C)C(=O)N(C)[C@H](CC(C)C)C(=O)N[C@H](CC(C)C)C(=O)N[C@H](C)C(=O)N[C@@H](CC(C)C)C(=O)N2CCC[C@@H]2C(=O)O[C@@H]1C,-5.25
CC(=O)N[C@@H]1C(=O)N2CCC[C@H]2C(=O)N(C)[C@H](CC(C)C)C(=O)N(C)[C@H](CC(C)C)C(=O)N[C@@H](CC(C)C)C(=O)N[C@H](CC(C)C)C(=O)N[C@H](C)C(=O)N[C@@H](CC(C)C)C(=O)N2CCC[C@@H]2C(=O)O[C@@H]1C,-6.18
CC(=O)N[C@@H]1C(=O)N2CCC[C@H]2C(=O)N(C)[C@H](CC(C)C)C(=O)N[C@@H](CC(C)C)C(=O)N[C@H](CC(C)C)C(=O)N(C)[C@@H](CC(C)C)C(=O)N[C@@H](C)C(=O)N[C@@H](CC(C)C)C(=O)N2CCC[C@@H]2C(=O)O[C@@H]1C,-5.36
CC(=O)N[C@@H]1C(=O)N2CCC[C@H]2C(=O)N(C)[C@H](CC(C)C)C(=O)N[C@@H](CC(C)C)C(=O)N(C)[C@H](CC(C)C)C(=O)N(C)[C@H](CC(C)C)C(=O)N[C@@H](C)C(=O)N[C@@H](CC(C)C)C(=O)N2CCC[C@@H]2C(=O)O[C@@H]1C,-5.55

The last 2 entries again:

structure (SMILES),PAMPA (log10 cm/s)
CC(=O)N[C@@H]1C(=O)N2CCC[C@H]2C(=O)N(C)[C@H](CC(C)C)C(=O)N[C@@H](CC(C)C)C(=O)N[C@H](CC(C)C)C(=O)N(C)[C@@H](CC(C)C)C(=O)N[C@@H](C)C(=O)N[C@@H](CC(C)C)C(=O)N2CCC[C@@H]2C(=O)O[C@@H]1C,-5.36
CC(=O)N[C@@H]1C(=O)N2CCC[C@H]2C(=O)N(C)[C@H](CC(C)C)C(=O)N[C@@H](CC(C)C)C(=O)N(C)[C@H](CC(C)C)C(=O)N(C)[C@H](CC(C)C)C(=O)N[C@@H](C)C(=O)N[C@@H](CC(C)C)C(=O)N2CCC[C@@H]2C(=O)O[C@@H]1C,-5.55